Here are results for 20 molecules from patent publication US9732063B2, “Kinase inhibitors” (RESPIVERT LIMITED, priority 2012, dated 2017).

Sequences of proteins named here, by UniProt entry; tags and fusion partners are left off. A change or cut given only in a name is not applied to a line headed by its entry.
UniProt P49840: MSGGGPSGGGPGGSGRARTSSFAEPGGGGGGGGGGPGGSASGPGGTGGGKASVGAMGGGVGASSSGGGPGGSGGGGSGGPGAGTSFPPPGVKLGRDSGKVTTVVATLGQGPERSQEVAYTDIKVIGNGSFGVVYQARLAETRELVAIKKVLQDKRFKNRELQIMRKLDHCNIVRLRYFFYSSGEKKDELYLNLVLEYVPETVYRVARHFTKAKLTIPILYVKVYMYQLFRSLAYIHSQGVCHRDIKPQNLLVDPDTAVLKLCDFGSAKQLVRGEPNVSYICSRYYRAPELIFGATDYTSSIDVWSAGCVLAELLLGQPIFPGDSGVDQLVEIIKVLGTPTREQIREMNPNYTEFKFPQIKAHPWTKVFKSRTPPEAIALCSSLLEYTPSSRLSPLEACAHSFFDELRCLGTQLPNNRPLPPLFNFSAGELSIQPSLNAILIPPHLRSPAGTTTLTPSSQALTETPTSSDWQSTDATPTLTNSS

Bounds are passed on as bounds.

One assay concerns the target GSK3α (Homo sapiens (Human), UniProt P49840). Nature of the assay: GSK 3α enzyme inhibition (Z-LYTE FRET, Method 2). Type of assay: biochemical. How it is done:
(§1) The enzyme inhibitory activities of compounds disclosed herein are determined by FRET using synthetic peptides labelled with both donor and acceptor fluorophores (Z-LYTE, Invitrogen Ltd., Paisley, UK).
The inhibitory activities of compounds of the invention against the GSK 3α enzyme isoform (Invitrogen), are evaluated by determining the level of activation/phosphorylation of the target peptide. The GSK3-α protein (500 ng/mL, 2.5 μL) is mixed with the test compound (2.5 μL at either 4 μg/mL, 0.4 μg/mL, 0.04 μg/mL, or 0.004 μg/mL) for 2 hr at RT. The FRET peptide (8 μM, 2.5 μL), which is a phosphorylation target for GSK3α, and ATP (40 μM, 2.5 μL) are then added to the enzyme/compound mixture and the resulting mixture incubated for 1 hr. Development reagent (protease, 5 μL) is added for 1 hr prior to detection in a fluorescence microplate reader (Varioskan® Flash, ThermoFisher Scientific).
(§2) In all cases, the site-specific protease cleaves non-phosphorylated peptide only and eliminates the FRET signal. Phosphorylation levels of each reaction are calculated using the ratio of coumarin emission (donor) over fluorescein emission (acceptor), for which high ratios indicate high phosphorylation and low ratios indicate low phosphorylation levels.

The next assay relates to TNBS-induced colitis. To be noted: dosed orally at 1 or 5 mg/kg, 2 days.
Another assay deals with Syk (Homo sapiens (Human), UniProt P43405). Nature of the assay: Syk enzyme inhibition (Z-LYTE FRET). Type of assay: biochemical. The protocol: as §1
The relevant enzyme (3000 ng/mL or 2000 ng/mL respectively, 2.5 μL) is incubated with the test compound (either 4 μg/mL, 0.4 μg/mL, 0.04 μg/mL, or 0.004 μg/mL, 2.5 μL each) for 2 hr at RT. The FRET peptides (8 μM, 2.5 μL), and appropriate ATP solutions (2.5 μL, 800 μM for c-Src, and 60 μM ATP for Syk) are then added to the enzymes/compound mixtures and incubated for 1 hr. Development reagent (protease, 5 μL) is added for 1 hr prior to detection in a fluorescence microplate reader (Varioskan® Flash, ThermoFisher Scientific).
as §2

One may read the IC50 as the concentration needed to halve the response being measured. Read a high IC50 as lower potency. In turn, `Cc1ccc(-n2nc(C(C)C)cc2NC(=O)Nc2ccc(Oc3ccnc(Nc4cccc(N=S(C)(C)=O)c4)n3)c3ccccc23)cc1` [Example 14] yielded an IC50 on GSK3α of 0.416 µM. On the same count and under the same terms, as for `COCCOCCOCCN(C)c1cc(Nc2nccc(Oc3ccc(NC(=O)Nc4cc(C(C)(C)C)nn4-c4ccc(C)cc4)c4ccccc34)n2)cc(OC)c1` [Example 67, 1-(3-(tert-Butyl)-1-(p-tolyl)-1H-pyrazol-5-yl)-3-(4-((2-((3-methoxy-5-((2-(2-(2-methoxyethoxy)ethoxy)ethyl)(methyl)amino)phenyl)amino)pyrimidin-4-yl)oxy)naphthalen-1-yl)urea], the figure is 5.26 µM.

Take `COCCOCCOCCOc1cc(Nc2cc(Oc3ccc(NC(=O)Nc4cc(C(C)(C)C)nn4-c4ccc(C)cc4)c4ccccc34)ccn2)cc(OC)c1` [Example 56, 1-(3-(tert-Butyl)-1-(p-tolyl)-1H-pyrazol-5-yl)-3-(4-((2-((3-methoxy-5-(2-(2-(2-methoxyethoxy)ethoxy)ethoxy)phenyl)amino)pyridin-4-yl)oxy)naphthalen-1-yl)urea]: at GSK3α, the IC50 was greater than 10 µM. In addition, the “activity in in vivo model of colonic inflammation (histopathology analysis)” value (shortened to “activity … (histopathology analysis)”) in the assay with TNBS-induced colitis is given as “significant activity”. Molecule `COc1cc(Nc2nccc(Oc3ccc(NC(=O)Nc4cc(C(C)C)nn4-c4ccc(C)cc4)c4ccccc34)n2)cc(OCCOCCOCCO)c1` [Example 20, 1-(4-((2-((3-(2-(2-(2-Hydroxyethoxy)ethoxy)ethoxy)-5-methoxyphenyl)amino)pyrimidin-4-yl)oxy)naphthalen-1-yl)-3-(3-isopropyl-1-(P-tolyl)-1H-pyrazol-5-yl)urea] displayed an IC50 on GSK3α of 3.84 µM.

In turn, `COc1cc(Nc2nccc(Oc3ccc(NC(=O)Nc4cc(C(C)(C)C)nn4-c4ccc(OC)nc4)c4ccccc34)n2)cc(S(=O)(=O)C2CC2)c1` [Example 61, 1-(3-(tert-Butyl)-1-(6-methoxypyridin-3-yl)-1H-pyrazol-5-yl)-3-(4-((2-((3-(cyclopropylsulfonyl)-5-methoxyphenyl)amino)pyrimidin-4-yl)oxy)naphthalen-1-yl)urea] displayed an IC50 on Syk of 120 nM. That is a sub-micromolar value. On GSK3α, `C#Cc1cccc(Nc2nccc(Oc3ccc(NC(=O)Nc4cc(C(C)C)nn4-c4ccc(C)cc4)c4ccccc34)n2)c1` [Example 10, 1-(4-((2-((3-Ethynylphenyl)amino)pyrimidin-4-yl)oxy)naphthalen-1-yl)-3-(3-isopropyl-1-(p-tolyl)-1H-pyrazol-5-yl)urea] yielded an IC50 greater than 10 µM. For `COc1cc(Nc2nccc(Oc3ccc(NC(=O)Nc4cc(C(C)C)nn4-c4ccc(C)cc4)c4ccccc34)n2)cc(S(=O)(=O)C2CC2)c1` [Example 18, 1-(4-((2-((3-(Cyclopropylsulfonyl)-5-methoxyphenyl)amino)pyrimidin-4-yl)oxy)naphthalen-1-yl)-3-(3-isopropyl-1-(p-tolyl)-1H-pyrazol-5-yl)urea], the “activity … (histopathology analysis)” value in the assay with TNBS-induced colitis was “significant activity”. Regarding `COCCOCCOCCOc1cc(Nc2nccc(Oc3ccc(NC(=O)Nc4cc(C(C)(C)C)nn4-c4ccc(OC)cc4)c4ccccc34)n2)cc(OC)c1` [Example 44, 1-(3-(tert-Butyl)-1-(4-methoxyphenyl)-1H-pyrazol-5-yl)-3-(4-((2-((3-methoxy-5-(2-(2-(2-methoxyethoxy)ethoxy)ethoxy)phenyl)amino)pyrimidin-4-yl)oxy)naphthalen-1-yl)urea], on GSK3α, it took 4.61 µM to reach half-maximal inhibition (IC50). The “activity … (histopathology analysis)” value with TNBS-induced colitis was “significant activity”. At GSK3α, `COc1cc(Nc2nccc(Oc3ccc(NC(=O)Nc4cc(C(C)(C)C)nn4-c4ccc(C)cc4)c(Cl)c3Cl)n2)cc(OCCN2CCOCC2)c1` [Example 59, 1-(3-(tert-Butyl)-1-(p-tolyl)-1H-pyrazol-5-yl)-3-(2,3-dichloro-4-((2-((3-methoxy-5-(2-morpholinoethoxy)phenyl)amino)pyrimidin-4-yl)oxy)phenyl)urea] displayed an IC50 of 7.37 µM. At GSK3α, `C#Cc1cc(Nc2nccc(Oc3ccc(NC(=O)Nc4cc(C(C)C)nn4-c4ccc(C)cc4)c4ccccc34)n2)cc(OC)c1` [Example 15, 1-(4-((2-((3-Ethynyl-5-methoxyphenyl)amino)pyrimidin-4-yl)oxy)naphthalen-1-yl)-3-(3-isopropyl-1-(p-tolyl)-1H-pyrazol-5-yl)urea] gave an IC50 greater than 10 µM. Turning to `COc1cc(Nc2nccc(Oc3ccc(NC(=O)Nc4cc(C(C)C)nn4-c4ccc(C)cc4)c(Cl)c3Cl)n2)cc(OCCN2CCOCC2)c1` [Example 21, 1-(2,3-Dichloro-4-((2-((3-methoxy-5-(2-morpholinoethoxyl)phenyl)amino)pyrimidin-4-yl)-oxy)phenyl)-3-(3-isopropyl-1-(p-tolyl)-1H-pyrazol-5-yl)urea], the IC50 on GSK3α was greater than 10 µM. Molecule `COCCOCCOCCOc1cccc(Nc2nccc(Oc3ccc(NC(=O)Nc4cc(C(C)(C)C)nn4-c4ccc(OC)nc4)c4ccccc34)n2)c1` [Example 4, 1-(3-(tert-Butyl)-1-(6-methoxypyridin-3-yl)-1H-pyrazol-5-yl)-3-(4-((2-((3-(2-(2-(2-methoxy-ethoxy)ethoxy)ethoxy)phenyl)amino)pyrimidin-4-yl)oxy)naphthalen-1-yl)urea] showed a half-inhibitory concentration (IC50) against GSK3α of 0.973 µM.

Take `COc1cc(Nc2nccc(Oc3ccc(NC(=O)Nc4cc(C(C)C)nn4-c4ccc(C)cc4)c4ccccc34)n2)cc(SCCO)c1` [Example 22]: it took 4.83 µM to reach half-maximal inhibition on GSK3α (IC50). Further, the “activity … (histopathology analysis)” value with TNBS-induced colitis is reported as “significant activity”. Consider `COc1cc(Nc2nccc(Oc3ccc(NC(=O)Nc4cc(C(C)(C)C)nn4-c4ccc(C)cc4)c4ccccc34)n2)cc(S(=O)(=O)C2CC2)c1` [Example 47, 1-(3-(tert-Butyl)-1-(p-tolyl)-1H-pyrazol-5-yl)-3-(4-((2-((3-(cyclopropylsulfonyl)-5-methoxy-phenyl)amino)pyrimidin-4-yl)oxy)naphthalen-1-yl)urea], for which the IC50 against Syk came out at 119 nM. Moreover, the “activity … (histopathology analysis)” value in the assay with TNBS-induced colitis is recorded as “significant activity”. As to `COCCOCCOCCOCCOCCOCCOCCOc1cc(Nc2nccc(Oc3ccc(NC(=O)Nc4cc(C(C)(C)C)nn4-c4ccc(C)cc4)c4ccccc34)n2)cc(OC)c1` [Example 51, 1-(4-((2-((3-(2,5,8,11,14,17,20-Heptaoxadocosan-22-yloxy)-5-methoxyphenyl)amino)pyrimidin-4-yl)oxy)naphthalen-1-yl)-3-(3-(tert-butyl)-1-(p-tolyl)-1H-pyrazol-5-yl)urea], in the assay with TNBS-induced colitis, the “activity … (histopathology analysis)” value is “significant activity”.

The molecule `COc1cc(Nc2nccc(Oc3ccc(NC(=O)Nc4cc(C(C)C)nn4-c4ccc(C)cc4)c4ccccc34)n2)cc(OS(C)(=O)=O)c1` [Example 12, 3-((4-((4-(3-(3-Isopropyl-1-(p-tolyl)-1H-pyrazol-5-yl)ureido)naphthalen-1-yl)oxy)pyrimidin-2-yl)amino)-5-methoxyphenyl methanesulfonate] gave an IC50 against GSK3α greater than 10 µM. At Syk, `COCCOCCOCCOc1cc(Nc2nccc(Oc3ccc(NC(=O)Nc4cc(C(C)C)nn4-c4ccc(C)cc4)c4ccccc34)n2)cc(OC)c1` [Example 13, 1-(3-Isopropyl-1-(p-tolyl)-1H-pyrazol-5-yl)-3-(4-((2-((3-methoxy-5-(2-(2-(2-methoxy-ethoxy)ethoxy)ethoxy)phenyl)amino)pyrimidin-4-yl)oxy)naphthalen-1-yl)urea] yielded an IC50 of 17 nM. Moreover, the “activity … (histopathology analysis)” value with TNBS-induced colitis is on record as “significant activity”.

On GSK3α, `COc1cc(Nc2nccc(Oc3ccc(NC(=O)Nc4cc(C(C)(C)C)nn4-c4ccc(C)cc4)c4ccccc34)n2)cc(OCCOCCOCCO)c1` [Example 62, 1-(3-(tert-Butyl)-1-(P-tolyl)-1H-pyrazol-5-yl)-3-(4-((2-((3-(2-(2-(2-hydroxyethoxy)ethoxy)ethoxy)-5-methoxyphenyl)amino)pyrimidin-4-yl)oxy)naphthalen-1-yl)urea] displayed an IC50 of 1.03 µM. That is a single-digit micromolar value. At Syk, `COCCOCCOCCOc1cc(Nc2nccc(Oc3ccc(NC(=O)Nc4cc(C(C)C)nn4-c4ccc(C)cc4)c(Cl)c3Cl)n2)cc(OC)c1` [Example 35, 1-(2,3-Dichloro-4-((2-((3-methoxy-5-(2-(2-(2-methoxyethoxy)ethoxy)ethoxy)phenyl)-amino)pyrimidin-4-yl)oxy)phenyl)-3-(3-isopropyl-1-(p-tolyl)-1H-pyrazol-5-yl)urea] had an IC50 of 30 nM. At Syk, `COCCOCCOCCOc1cc(Nc2nccc(Oc3ccc(NC(=O)Nc4cc(C(C)(C)C)nn4-c4ccc(N(C)C)cc4)c4ccccc34)n2)cc(OC)c1` [Example 63, 1-(3-(tert-Butyl)-1-(4-(dimethylamino)phenyl)-1H-pyrazol-5-yl)-3-(4-((2-((3-methoxy-5-(2-(2-(2-methoxyethoxy)ethoxy)ethoxy)phenyl)amino)pyrimidin-4-yl)oxy)naphthalen-1-yl)urea] came in with an IC50 of 16 nM.
